Reference: article PMC8670751 (Science immunology, 2021)

Molecular target: T1, HLA-DQ2.5:DQ2.5-glia-α2, recombinant soluble pMHC (Homo sapiens, HLA-DQ2.5 …, strain)
T1 chain 1: not shown
T1 chain 2: not shown
Assay: SPR

- Kd: 0.088 ± 0.008 nM
B1: Fab 3.C11 (Fab, V domains shown)
VH: QVQLVQSGAEVKKPGSSVKVSCKASGGTVRSRVHAISWVRQAPGQGLEWMGGIIPIFGTANYAQKFQGRVTITADESTSTAYMELSSLRSEDTAVYYCARDVQRMGMDVWGQGTTVTVSS
VL: DIQMTQSPSSVSTSVGDRVTITCRASQDISNWLAWYQQKPGKAPKLLIYDSSTLQSGVPSRFSGSGSGTDFTLTISTLQPEDFATYYCQQFNSYPLTFGGGTKVDIK
